Laboratory results taken from ChEMBL document CHEMBL5653603 (J Am Chem Soc, 2010).

Chains of the proteins cited; added tags and fusions are not shown. Lines headed by an entry give the natural chain unless they say otherwise; changes in a name come on top.
UniProt P56524: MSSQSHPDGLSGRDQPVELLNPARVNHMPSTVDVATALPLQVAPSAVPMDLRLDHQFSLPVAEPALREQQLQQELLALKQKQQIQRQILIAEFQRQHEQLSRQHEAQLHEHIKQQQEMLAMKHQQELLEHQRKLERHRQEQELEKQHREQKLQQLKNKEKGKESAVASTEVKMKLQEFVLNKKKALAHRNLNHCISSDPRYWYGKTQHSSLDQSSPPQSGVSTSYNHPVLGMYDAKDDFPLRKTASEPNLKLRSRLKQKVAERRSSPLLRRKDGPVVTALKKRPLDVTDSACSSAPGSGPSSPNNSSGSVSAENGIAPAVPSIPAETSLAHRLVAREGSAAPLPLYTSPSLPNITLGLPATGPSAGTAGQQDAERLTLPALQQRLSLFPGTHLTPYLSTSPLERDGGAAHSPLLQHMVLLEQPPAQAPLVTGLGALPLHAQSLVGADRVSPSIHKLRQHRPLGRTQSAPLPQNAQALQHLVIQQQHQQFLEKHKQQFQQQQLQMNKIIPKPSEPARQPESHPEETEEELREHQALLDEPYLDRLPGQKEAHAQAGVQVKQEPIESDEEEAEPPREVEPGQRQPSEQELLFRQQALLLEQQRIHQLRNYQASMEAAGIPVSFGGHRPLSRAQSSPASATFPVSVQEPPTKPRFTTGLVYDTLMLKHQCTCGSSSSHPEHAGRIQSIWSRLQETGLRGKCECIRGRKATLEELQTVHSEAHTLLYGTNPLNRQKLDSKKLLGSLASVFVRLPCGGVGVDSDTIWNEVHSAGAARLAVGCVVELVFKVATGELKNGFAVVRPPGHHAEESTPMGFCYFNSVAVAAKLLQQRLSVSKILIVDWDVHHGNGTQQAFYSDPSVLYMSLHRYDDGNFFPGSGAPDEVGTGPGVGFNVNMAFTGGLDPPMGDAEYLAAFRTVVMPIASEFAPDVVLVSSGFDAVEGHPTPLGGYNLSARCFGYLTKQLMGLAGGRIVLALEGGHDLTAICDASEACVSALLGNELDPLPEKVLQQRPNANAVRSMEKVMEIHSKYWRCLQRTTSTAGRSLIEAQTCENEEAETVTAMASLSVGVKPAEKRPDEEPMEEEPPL

Target: Histone deacetylase 4 (Homo sapiens, UniProt P56524)
Assay: Inhibition of recombinant human HDAC4 using Acetyl-Lys(trifluoroacetyl)-AMC as substrate by fluorescence assay
Format: toxicity

CN1CCc2c(c3ccccc3n2Cc2ccc(C(=O)NO)cc2)C1.O=C(O)C(F)(F)F
IC50: > 30 µM
